# Screens as filed in PubChem BioAssay.
# Statin myotox sup – suppression of simvastatin myotoxicity; rescue of ATP level, % at 7.49 µM; C2C12 myotubes + simvastatin, ATP luminescence, 48 h; scaled: DMSO 0, geranylgeraniol control 100; AID 602340; 330,000 tested, 0.78% active;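 active means mean ATP rescue above about 67%, or every replicate alone reaching that limit, limit read from the data, passing the limit was not always enough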;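 further: myotubes were challenged with 10 µM simvastatin during compound exposure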
# miR-122 sensor – blocks miR-122 activity in Huh7 sensor cells | Huh7 miR-122 Renilla luciferase sensor, 48 h; neutral wells = 0, positive control = 100 | activation (reporter increase), % at 12.5 µM | 340,000 tested, 0.3% active | AID 602342;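 active means mean replicate activation score at least 90 and every replicate individually at or above 90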;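 further: higher luciferase means less miR-122 activity so hits act as miR-122 inhibitors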
# UUG fidelity – modulators of start codon recognition fidelity in yeast; S. cerevisiae UUG-firefly luciferase reporter, luminescence/redox ratio; activity score, % at 18.7 µM; hit rate 0.13% among 350,000; AID 602363;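 active = replicate mean at a twofold rise or more, about +100% in these data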;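 note: firefly luciferase made from a UUG start codon reports start codon fidelity; reporter light over untreated wells divided by growth signal over untreated wells; some hits fall short of that in this replicate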
# Cneo AK release – Cryptococcus neoformans lysis via adenylate kinase release; C. neoformans lysis, adenylate kinase release luminescence, 4 h; normalised: neutral wells 0, clomiphene wells 100; lysis activity, % at 15 µM; 360,000 tested, 0.2% active; AID 651654;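 active means mean lysis activity across replicates of at least 80%, whatever share of replicates individually reach that level; inactive means mean lysis activity below 80%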
#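 Test system: log-phase Cryptococcus neoformans yeast cells; Quantity: yeast cell density of 5 × 10^6 cells/mL; Buffer or medium: YPD; Doses: single compound concentration per well; Timing: 4 h at 37 °C static, read 1 h later; Measured by: AK luminescence; Read-out basis: lysis from increased AK signal; Control set: Clomiphene as positive control.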
# The depositor's hits bear a star; . = no result given; [ ] = dose if it differs, or a comment. Rows were chosen to be rich in hits. Some 1.2% of all compounds tested hit in one or more screens of this group.
no.	structure	Statin myotox sup	miR-122 sensor	UUG fidelity	Cneo AK release
1	COC(=O)c1cccc(OCC(O)Cn2ccnc2)c1 (centres undefined)	109.3*	9.8	-13.1	-0.3
2	CCn1c2ccccc2c2cc(N)ccc21	107.8*	2.6	0.1	-3.2
3	CCn1c2ccccc2c2cc(/C(C)=N/O)ccc21	-8.9	-0.1	-17.6	1.6
4	O=C(CN1C(=O)COc2ccccc21)NCCN1CCOCC1	-23.4	.	-14.1	7.1
5	CCN(CC)S(=O)(=O)c1ccc2c(c1)N(CC(=O)NCCN1CCOCC1)C(=O)CO2	115.9*	-1.0	1.4	-5.5
6	Cc1cc(S(=O)(=O)Nc2nc(CN3CCOCC3)nc3sc4c(c23)CCCC4)ccc1F	121.1*	4.3	0.4	4.0
7	C[C@H](NC(=O)[C@H]1[C@H](CO)[C@H]2Cn3c(ccc(-c4cccnc4)c3=O)[C@H]2N1C)c1ccccc1	-5.7	-0.8[16.7 µM]	.	0.4
8	CCn1cc(S(=O)(=O)CC(=O)Nc2cccc(C)c2)c2ccccc21	-5.3	26.3	2.2	3.7
9	CCn1cc(S(=O)(=O)CC(=O)Nc2ccc(C)cc2)c2ccccc21	3.3	98.5*	-14.6	-3.3
10	COc1ccc(S(=O)(=O)Nc2ccc3c(c2)C(=O)N([C@@H](C)CO)C[C@H](C)[C@H](CN(C)Cc2ccc4c(c2)OCO4)OCCCC[C@@H](C)O3)cc1	10.6	-8.9[16.7 µM]	13.8	3.2

# (next part)
no.	structure	Statin myotox sup	miR-122 sensor	UUG fidelity	Cneo AK release
11	C[C@@H]1CN([C@@H](C)CO)C(=O)c2cc(NS(=O)(=O)c3ccc(F)cc3)ccc2O[C@@H](C)CCCCO[C@@H]1CN(C)Cc1ccc2c(c1)OCO2	.	-10.5[16.7 µM]	35.0	99.2*
12	COc1ccc(S(=O)(=O)Nc2ccc3c(c2)C(=O)N([C@@H](C)CO)C[C@@H](C)[C@@H](CN(C)Cc2ccc4c(c2)OCO4)OCCCC[C@H](C)O3)cc1	89.8*	-6.1[16.7 µM]	9.3	2.2
13	C[C@@H]1CN([C@H](C)CO)C(=O)c2cc(NS(=O)(=O)c3ccc(F)cc3)ccc2O[C@@H](C)CCCCO[C@H]1CN(C)Cc1ccc2c(c1)OCO2	.	-13.2[16.7 µM]	13.2	12.4
14	O=C(Nc1cccc(Cl)c1)N[C@H]1CC[C@H](CCNC(=O)C2CC2)O[C@@H]1CO	-4.8	.	5.4	-8.5
15	Cc1cc(C)n(C(=O)c2cc3ccccc3c(=O)o2)n1	93.1*	3.1	-1.2	-0.5
16	Cc1ccc(-c2cnc(C3CC3)o2)cc1S(=O)(=O)Nc1ccccc1	-36.7	334.5*	-21.6	-0.9
17	CC(=O)Nc1ccc(NS(=O)(=O)c2cc(-c3cnc(C4CC4)o3)ccc2C)cc1	-22.3	10.1	-6.0	0.4
18	CCOc1ccccc1NS(=O)(=O)c1ccc(-c2cnc(C3CC3)o2)cc1	-51.7	126.8*	-15.9	0.2
19	COc1ccc(NC(=O)Nc2ccc3c(c2)C(=O)N([C@@H](C)CO)C[C@@H](C)[C@H](CN(C)C)OCCCC[C@@H](C)O3)cc1	-1.1	-0.4[16.7 µM]	.	.
20	CCCNC(=O)C[C@@H]1C[C@H]2c3cc(NS(C)(=O)=O)ccc3O[C@H]2[C@@H](CO)O1	-4.4	3.7[16.7 µM]	-7.4	19.9

# Fetched one by one from above:
no.	structure	Statin myotox sup	miR-122 sensor	UUG fidelity	Cneo AK release
19	COc1ccc(NC(=O)Nc2ccc3c(c2)C(=O)N([C@@H](C)CO)C[C@@H](C)[C@H](CN(C)C)OCCCC[C@@H](C)O3)cc1	-1.1	-0.4[16.7 µM]	.	.
11	C[C@@H]1CN([C@@H](C)CO)C(=O)c2cc(NS(=O)(=O)c3ccc(F)cc3)ccc2O[C@@H](C)CCCCO[C@@H]1CN(C)Cc1ccc2c(c1)OCO2	.	-10.5[16.7 µM]	35.0	99.2*

# Further compounds
no.	structure	Statin myotox sup	miR-122 sensor	UUG fidelity	Cneo AK release
21	COC(=O)CNc1nc(-c2ccccc2F)nc2ccccc12	18.3	4.3	-10.5	-3.4
22	CC(=O)Nc1cccc(Nc2nc(-c3ccccc3F)nc3ccccc23)c1	106.3*	-1.8	-5.0	-3.8
23	CCCNC(=O)N1[C@H](CO)[C@@H](c2ccc(C3=CCCC3)cc2)[C@@H]1CN(C)C(C)=O	10.9	-7.1[16.7 µM]	52.6	87.3*
24	CCCNC(=O)N1[C@H](CO)[C@@H](c2ccc(C3=CCCC3)cc2)[C@H]1CNC(C)=O	0.6	-7.1[16.7 µM]	1.0	0.3
25	CC(=O)NC[C@H]1[C@@H](c2ccc(C3=CCCC3)cc2)[C@@H](CO)N1C(=O)NC(C)C	-6.9	21.4[16.7 µM]	31.4	119.7*
26	COc1ccc(NC(=O)N(C)C[C@H]2Oc3ccc(NC(=O)CCN4CCOCC4)cc3CC(=O)N([C@H](C)CO)C[C@H]2C)cc1	-0.4	-6.8[16.7 µM]	3.7	-2.4
27	CCNc1nc(N)nc(Oc2ccc(OCc3ccccc3)nn2)n1	.	-7.2	-9.3	-2.5
28	CCNc1nc(N)nc(Oc2ccc(OCCOc3ccccc3)nn2)n1	.	151.2*	-4.4	1.8
29	C[C@@H]1CN([C@@H](C)CO)C(=O)c2cc(NC(=O)CCCN(C)C)ccc2O[C@@H](C)CCCCO[C@@H]1CN(C)Cc1ccncc1	20.0	0.1[16.7 µM]	-18.9	-2.2
30	S=C(NCc1ccncc1)Nc1ccc(Cl)c(Cl)c1	.	14.3	-18.4	-2.0

# Remaining list, next part.
no.	structure	Statin myotox sup	miR-122 sensor	UUG fidelity	Cneo AK release
31	S=C(NCc1ccncc1)Nc1cc(Cl)cc(Cl)c1	7.4	102.6*	-23.5	-1.7
32	O=c1c2ccccc2c(=O)n2n1Cc1ccccc1C2	-4.0	-6.8	-8.8	2.7
33	CC1=CCn2c(=O)c3ccccc3c(=O)n2C1	125.3*	-4.4	25.9	-0.5
34	C[C@H]1CN([C@@H](C)CO)C(=O)c2cc(-c3ccccc3)cnc2O[C@@H]1CN(C)C	-0.3	-3.3[16.7 µM]	-8.6	6.6
35	Clc1ccccc1CNc1ncnc2nc[nH]c12	101.4*	-1.2	-4.8	2.5
36	CN(C)CC(=O)N1[C@@H]2c3ccc(C4=CCCC4)c(=O)n3C[C@H]1[C@H](CO)[C@H]2C(=O)NCC1CCCCC1	-26.8	3.8[16.7 µM]	21.2	-1.1
37	COCCNC(=O)C[C@@H]1CC[C@H]2[C@@H](COC[C@H](O)CN2S(=O)(=O)c2ccccc2F)O1	-9.3	-3.4[16.7 µM]	.	-2.0
38	Cc1ccc(C(C(=O)NC2CCCC2)N(Cc2cccs2)C(=O)CNC(=O)c2cccs2)o1 (centres undefined)	136.0*	0.8	0.6	1.9
39	Cc1cccc(-c2ccc([C@H]3[C@H](CO)N4CCCCN(C(=O)c5ccc6c(c5)OCO6)C[C@@H]34)cc2)c1	23.3	46.3[16.7 µM]	35.6	91.0*
40	COc1ccc(NC(C)=O)cc1S(=O)(=O)Nc1ccc(S(=O)(=O)N2CCCCC2)cc1	-0.1	125.7*	-9.2	-0.5

# Record cards, from the list above. Order of values: Statin myotox sup | miR-122 sensor | UUG fidelity | Cneo AK release
# Record of COc1ccc(NC(C)=O)cc1S(=O)(=O)Nc1ccc(S(=O)(=O)N2CCCCC2)cc1 → -0.1 | 125.7* | -9.2 | -0.5
# Record of CN(C)CC(=O)N1[C@@H]2c3ccc(C4=CCCC4)c(=O)n3C[C@H]1[C@H](CO)[C@H]2C(=O)NCC1CCCCC1 → -26.8 | 3.8[16.7 µM] | 21.2 | -1.1
# Record of Cc1ccc(C(C(=O)NC2CCCC2)N(Cc2cccs2)C(=O)CNC(=O)c2cccs2)o1 (centres undefined) → 136.0* | 0.8 | 0.6 | 1.9

# More structures:
no.	structure	Statin myotox sup	miR-122 sensor	UUG fidelity	Cneo AK release
41	CC(=O)Nc1ccc(S(=O)(=O)Nc2ccc(S(=O)(=O)N3CCCCCC3)cc2)cc1	-4.6	20.7	5.9	-6.6
42	COc1ccc(S(=O)(=O)Nc2ccc(S(=O)(=O)N3CCCCC3)cc2)cc1C	4.7	251.5*	-7.0	1.2
43	COc1ccc(NC(=O)N(C)C[C@H]2OCCCC[C@@H](C)Oc3ccc(NC(=O)Nc4ccc(C(F)(F)F)cc4)cc3C(=O)N([C@@H](C)CO)C[C@@H]2C)cc1	-14.9	6.5[16.7 µM]	-7.9	4.4
44	O=C(Nc1ccc(Cl)cc1)N[C@H]1CC[C@@H](CCNC(=O)c2ccccc2F)O[C@@H]1CO	0.7	.	3.7	0.9
45	C[C@H](NC(=O)C[C@H]1C[C@H]2c3cc(NC(=O)C4CCC4)ccc3O[C@H]2[C@H](CO)O1)c1ccccc1	2.5	3.1[16.7 µM]	-9.9	-3.4
46	Cc1cc(NC(=O)CSc2nc3ccsc3c(=O)n2Cc2ccccn2)n[nH]1	93.1*	-8.7	-23.4	-1.1
47	N#Cc1c(N)n(-c2ccccc2)c(=O)c2cc([N+](=O)[O-])ccc12	-7.1	-2.3	-9.4	0.0
48	CC1(C)Cc2c(C#N)c(N)n(-c3ccccc3)c(=O)c2CO1	81.5*	-13.5	-0.7	-0.2
49	CC(C)c1ccc(NC(=O)C2CC(=O)N=C(N)S2)cc1 (centres undefined)	138.2*	0.7	-23.0	6.6
